SR-BI HDL uptake: inhibitors of SR-BI mediated HDL lipid uptake, primary screen, ldlA[mSR-BI] cells, fluorescence, single point. Scavenger receptor class B member 1 (Mus musculus), Q61009. ldlA[mSR-BI] CHO cells, DiI-HDL uptake fluorescence, 3 h. inhibition, % at 12.5 µM. 0.96% of 320,000 active. AID 488896, 2010;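 active = mean replicate inhibition of at least 70% and a set share of replicates each scoring 70 or more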;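 also: 0% = median of neutral control wells and 100% = median of positive control wells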
SR-BI uptake up: activators of SR-BI mediated DiI-HDL uptake, primary screen, ldlA[mSR-BI] CHO cells, DiI fluorescence | 3 h; 100 = double the neutral-control signal | activation, % at 12.5 µM | 0.096% of 320,000 active | AID 504775, 2011;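 active = mean replicate activation of at least 60% and every replicate at or above 60%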;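 also: 0% = median plate neutral-control signal and 100% = twice that signal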
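system = CHO ldlA[mSR-BI] cells, LDL receptor-null, SR-BI overexpressing | medium = Ham's F12 with 0.5% BSA, HEPES 25 mM, pH 7.4 | probe or stimulus = DiI-HDL 10 µg/mL | compound dosing = single-point compound dose | incubation = compound exposure 3 h, 37 °C | technique = DiI fluorescence, bottom read | read-out = cell-associated DiI fluorescence as measure of HDL uptake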
INS-1E GSIS act: GLuc luminescence reporter in INS-1E cells, primary screen for activators of glucose-dependent secretion of insulin. INS-1E GLuc reporter insulin secretion, 2-3 h. activation, % at 16.6 µM. 0.61% of 370,000 active. AID 743287, 2014;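 active = lowest replicate activation of at least 40%, so every replicate reaches that level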;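 also: 0% = median of neutral control wells and 100% = median of IBMX positive control wells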
UUG fidelity: modulators of start codon recognition fidelity in yeast; S. cerevisiae UUG-firefly luciferase reporter, luminescence/redox ratio; activity score, % at 18.7 µM; hit rate 0.13% among 350,000; AID 602363;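 active = replicate mean at a twofold rise or more, about +100% in these data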;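 note: firefly luciferase made from a UUG start codon reports start codon fidelity; reporter light over untreated wells divided by growth signal over untreated wells; some hits fall short of that in this replicate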
* marks the source's active call; other numbers are inactive results; · = no result. This is a sample that favours compounds with a hit; in the whole collection about 1.3% have one here.

1) O=C(c1ccccn1)N1C[C@@H]2[C@H](c3ccccc31)[C@@H](CO)N2C(=O)Cc1ccccc1
2) Cc1nc(NC(=O)c2ccccc2)sc1-c1csc(NCCc2ccccc2)n1
3) Cc1nc(NC(=O)c2ccccc2)sc1-c1csc(NCc2ccccc2)n1
4) CCCCCCC(=O)Nc1nc(C)c(-c2csc(Nc3ccccc3OC)n2)s1
5) CCCCC(=O)Nc1nc(C)c(-c2csc(Nc3cc(Cl)ccc3OC)n2)s1
6) CCCN(C)C[C@H]1Oc2cc(-c3cccnc3)ccc2S(=O)(=O)N([C@@H](C)CO)C[C@H]1C
7) Cc1cccc(-c2nnn3c2nc(NCCc2ccc(S(N)(=O)=O)cc2)c2ccccc23)c1
8) NS(=O)(=O)c1ccc(CCNc2nc3c(-c4cccc(F)c4)nnn3c3ccccc23)cc1
9) Cc1ccc(-c2nnn3c2nc(NCCc2ccc(S(N)(=O)=O)cc2)c2ccccc23)cc1
10) CS(=O)(=O)N1CCCCC1c1cc(C(=O)Nc2cccc(C#N)c2)no1 (stereo unspecified)
assay / compound,1,2,3,4,5,6,7,8,9,10
SR-BI HDL uptake,·,76*,69,80*,88*,·,-7,-19,-88,·
SR-BI uptake up,·,-76,-69,-80,-88,·,7,19,88*,·
INS-1E GSIS act,16,·,·,·,-3,10,5,59*,·,41*
UUG fidelity,-15,-33,-34,-3,-12,-5,-20,-4,-9,-34

11) Cc1c(NC(=S)N/C(=N/S(=O)(=O)c2ccccc2)c2ccccc2)c(=O)n(-c2ccccc2)n1C
12) CO[C@@H]1CN(C)C(=O)c2cc(NC(=O)C3CC3)ccc2OC[C@H](C)N(C(=O)c2ccccc2)C[C@@H]1C
13) CCC(c1nnnn1-c1ccc2c(c1)OCCO2)N1CCc2ccccc2C1 (stereo unspecified)
14) CCC(c1nnnn1-c1ccc2c(c1)OCCO2)N1CCN(C(=O)c2ccco2)CC1 (stereo unspecified)
15) CC1(C)CC2(CC(c3ccc(F)cc3)c3ccc(O)cc3O2)NC(=S)N1 (stereo unspecified)
16) CC1(C)CC2(CC(c3cccs3)c3cc(Cl)c(O)cc3O2)NC(=S)N1 (stereo unspecified)
17) CNC[C@@H]1Oc2cc(C#CCOC)ccc2S(=O)(=O)N([C@H](C)CO)C[C@H]1C
18) Cc1ccc(S(=O)(=O)N(C)C[C@@H]2Oc3ccc(NC(=O)Nc4ccc(F)cc4)cc3C(=O)N([C@H](C)CO)C[C@H]2C)cc1
19) CCn1c(Cc2ccccc2)n[nH]c1=S
20) CC(C)Cn1c(Cc2ccccc2)n[nH]c1=S
assay / compound,11,12,13,14,15,16,17,18,19,20
SR-BI HDL uptake,·,·,·,·,47,90*,·,·,·,-1
SR-BI uptake up,·,·,·,·,-47,-90,·,·,·,1
INS-1E GSIS act,44*,4,55*,-6,-41,-7,-7,0,·,55*
UUG fidelity,-14,4,·,·,-26,·,·,1,-29,-1

21) CN(C)S(=O)(=O)c1cccc(-n2sc3ccccc3c2=O)c1
22) O=c1c2ccccc2sn1-c1cccc(Cl)c1
23) O=c1c2ccccc2sn1-c1ccccc1
24) Cn1sc2ccccc2c1=O
25) Cc1ccccc1-n1sc2cc(F)ccc2c1=O
26) O=c1c2ccccc2sn1-c1ccccc1F
27) C[C@H]1CN([C@@H](C)CO)C(=O)Cc2cc(NS(=O)(=O)c3cccs3)ccc2O[C@H]1CN(C)S(=O)(=O)c1cccs1
28) CSc1ccccc1OCc1cc(C(=O)NCCn2nc(C)cc2C)no1
29) Cc1cc(C)n(CCNC(=O)c2cc(COc3ccc(F)cc3Cl)on2)n1
30) O=C(CCN1C(=O)/C(=C\c2ccccc2F)SC1=S)N1CCOCC1
assay / compound,21,22,23,24,25,26,27,28,29,30
SR-BI HDL uptake,-25,·,-33,·,3,·,·,72*,34,·
SR-BI uptake up,25,·,33,·,-3,·,·,-72,-34,·
INS-1E GSIS act,65*,-18,256*,12,45*,86*,-7,-19,-8,42*
UUG fidelity,-20,-5,195*,-2,-34,-25,·,-1,·,-6

Whole records from above. Order of screens: SR-BI HDL uptake	SR-BI uptake up	INS-1E GSIS act	UUG fidelity
Shown for Cc1ccccc1-n1sc2cc(F)ccc2c1=O = 3	-3	45*	-34
Shown for Cn1sc2ccccc2c1=O = ·	·	12	-2
Shown for CN(C)S(=O)(=O)c1cccc(-n2sc3ccccc3c2=O)c1 = -25	25	65*	-20

Other structures follow:
31) Cc1ccc(-n2ncc3c(=O)n(CC(=O)Nc4cccc(Cl)c4)cnc32)cc1C
32) CCOc1ccccc1NC(=O)Cn1cnc2c(cnn2-c2ccc(C)c(C)c2)c1=O
33) COc1ccc(NC(=O)Cn2cnc3c(cnn3-c3ccc(C)c(C)c3)c2=O)c(OC)c1
34) CCOc1ccccc1CNS(=O)(=O)c1cnc[nH]1
35) CCCCc1nnc2c(N(C)S(=O)(=O)c3ccc(C)cc3)nc3ccccc3n12
36) CCCc1nnc2c(N(C)S(=O)(=O)c3ccc(C)cc3)nc3ccccc3n12
37) CCOc1ccc2oc(C(=O)NNC(=O)c3ccccc3O)c(C)c2c1
38) Cc1c(C(=O)NNC(=O)c2ccccc2O)oc2ccc(Br)cc12
39) CCOc1ccc2oc(C(=O)O)c(C)c2c1
40) CC(=O)Nc1ccc2c(c1)C(=O)N(C)[C@H]1CC[C@H](CC(=O)Nc3ccccc3Cl)O[C@@H]1CO2
assay / compound,31,32,33,34,35,36,37,38,39,40
SR-BI HDL uptake,-18,-11,31,9,34,-4,131*,129*,-24,·
SR-BI uptake up,18,11,-31,·,-34,4,-131,-129,24,·
INS-1E GSIS act,257*,6,97*,44*,16,68*,-5,-4,31,11
UUG fidelity,7,-9,-15,-11,-6,·,-14,4,3,-9

41) O=S(=O)(Nc1cccc(-c2ccc3nncn3n2)c1)c1cccc(F)c1
42) O=S(=O)(Nc1ccc(-c2ccc3nncn3n2)cc1)c1ccccc1F
43) COc1ccc(S(=O)(=O)Nc2cccc(-c3ccc4nncn4n3)c2)cc1F
44) O=[N+]([O-])c1ccccc1S(=O)(=O)Nc1cccc(-c2ccc3nncn3n2)c1
45) O=[N+]([O-])c1ccccc1S(=O)(=O)Nc1ccc(-c2ccc3nncn3n2)cc1
46) O=C(C[C@H]1CC[C@H](NC(=O)Nc2ccccc2F)[C@@H](CO)O1)NCc1ccc(Cl)cc1
47) Cc1ccc(OCC(=O)NC(=S)Nc2cccc(NC(=O)c3ccccc3)c2)cc1
48) O=C(O)c1cccc(NC(=S)NC(=O)c2cccc(OCc3ccccc3)c2)c1
49) CCCOc1cccc(C(=O)NC(=S)Nc2cccc(NC(=O)c3ccccc3Cl)c2)c1
50) CCCCOc1cccc(C(=O)NC(=S)Nc2cccc(NC(=O)c3ccccc3Cl)c2)c1
51) CNC(=O)C[C@H]1CC[C@H]2[C@@H](COc3ccc(NC(=O)Nc4ccccc4F)cc3C(=O)N2C)O1
assay / compound,41,42,43,44,45,46,47,48,49,50,51
SR-BI HDL uptake,9,-1,7,-17,-16,·,29,-68,81*,59,·
SR-BI uptake up,-9,1,-7,17,16,·,-29,68*,-81,-59,·
INS-1E GSIS act,3,24,42*,89*,49*,9,49*,-2,4,-14,-1
UUG fidelity,·,-19,·,-15,·,-5,-9,-10,-18,·,2
